B1: IFWM3291 (antibody, V domains shown)
VH: EVQLVQSGAEVKKPGESLKISCKGSGYSFTSYWIGWVRQMPGKGLEWMGIIDPSDSDTRYSPSFQGQVTISADKSISTAYLQWSSLKASDTAMYYCARHPGLNWAPDFDYWGQGTLVTVSS
VL: DIQMTQSPSSLSASVGDRVTITCRASQSIDEFLNWYQQKPGKAPKLLIYFASSLQSGVPSRFSGSGSGTDFTLTISSLQPEDFATYYCQQAHSFPLTFGQGTKVEIK
notes: VH IFWH591, VL IFWL999; converted mAb; also called IFWB3026
B2: IFWM3318 (antibody, V domains shown)
VH: EVQLVQSGAEVKKPGESLKISCKGSGYSFTSYWIGWVRQMPGKGLEWMGIIDPSDSDTRYSPSFQGQVTISADKSISTAYLQWSSLKASDTAMYYCARHPGLNWAPDFDYWGQGTLVTVSS
VL: DIQMTQSPSSLSASVGDRVTITCRASQSISEYLNWYQQKPGKAPKLLIYFASSLQSGVPSRFSGSGSGTDFTLTISSLQPEDFATYYCQQSHSLPITFGQGTKVEIK
notes: VH IFWH591, VL IFWL1038; converted mAb; also called IFWB3053
B3: IFWM3305 (antibody, V domains shown)
VH: EVQLVQSGAEVKKPGESLKISCKGSGYSFTSYWIGWVRQMPGKGLEWMGIIDPSDSDTRYSPSFQGQVTISADKSISTAYLQWSSLKASDTAMYYCARHPGLNWAPDFDYWGQGTLVTVSS
VL: DIQMTQSPSSLSASVGDRVTITCRASQSISKFLNWYQQKPGKAPKLLIYFASSLQSGVPSRFSGSGSGTDFTLTISSLQPEDFATYYCQQSNTLPFTFGQGTKVEIK
notes: VH IFWH591, VL IFWL998; converted mAb; also called IFWB3040
B4: IFWM3303 (antibody, V domains shown)
VH: EVQLVQSGAEVKKPGESLKISCKGSGYSFTSYWIGWVRQMPGKGLEWMGIIDPSDSDTRYSPSFQGQVTISADKSISTAYLQWSSLKASDTAMYYCARHPGLNWAPDFDYWGQGTLVTVSS
VL: DIQMTQSPSSLSASVGDRVTITCRASQSIGSFLNWYQQKPGKAPKLLIYFASSLQSGVPSRFSGSGSGTDFTLTISSLQPEDFATYYCQQSYSIPITFGQGTKVEIK
notes: VH IFWH591, VL IFWL992; converted mAb; also called IFWB3038
B5: IFWM3309 (antibody, V domains shown)
VH: EVQLVQSGAEVKKPGESLKISCKGSGYSFTSYWIGWVRQMPGKGLEWMGIIDPSDSDTRYSPSFQGQVTISADKSISTAYLQWSSLKASDTAMYYCARHPGLNWAPDFDYWGQGTLVTVSS
VL: DIQMTQSPSSLSASVGDRVTITCRASQSIGGFLNWYQQKPGKAPKLLIYFASSLQSGVPSRFSGSGSGTDFTLTISSLQPEDFATYYCQQSYSLPITFGQGTKVEIK
notes: VH IFWH591, VL IFWL1006; converted mAb; also called IFWB3044
B6: IFWM3304 (antibody, V domains shown)
VH: EVQLVQSGAEVKKPGESLKISCKGSGYSFTSYWIGWVRQMPGKGLEWMGIIDPSDSDTRYSPSFQGQVTISADKSISTAYLQWSSLKASDTAMYYCARHPGLNWAPDFDYWGQGTLVTVSS
VL: DIQMTQSPSSLSASVGDRVTITCRASQSIGSALNWYQQKPGKAPKLLIYFASSLQSGVPSRFSGSGSGTDFTLTISSLQPEDFATYYCQQSYDFPLTFGQGTKVEIK
notes: VH IFWH591, VL IFWL997; converted mAb; also called IFWB3039
B7: IFWM3317 (antibody, V domains shown)
VH: EVQLVQSGAEVKKPGESLKISCKGSGYSFTSYWIGWVRQMPGKGLEWMGIIDPSDSDTRYSPSFQGQVTISADKSISTAYLQWSSLKASDTAMYYCARHPGLNWAPDFDYWGQGTLVTVSS
VL: DIQMTQSPSSLSASVGDRVTITCRASQSISKFLNWYQQKPGKAPKLLIYFASSLQSGVPSRFSGSGSGTDFTLTISSLQPEDFATYYCQQSYDFPITFGQGTKVEIK
notes: VH IFWH591, VL IFWL1026; converted mAb; also called IFWB3052
B8: IFWM3321 (antibody, V domains shown)
VH: EVQLVQSGAEVKKPGESLKISCKGSGYSFTSYWIGWVRQMPGKGLEWMGIIDPSDSDTRYSPSFQGQVTISADKSISTAYLQWSSLKASDTAMYYCARHPGLNWAPDFDYWGQGTLVTVSS
VL: DIQMTQSPSSLSASVGDRVTITCRASQSIDGALNWYQQKPGKAPKLLIYFASSLQSGVPSRFSGSGSGTDFTLTISSLQPEDFATYYCQQAYDFPLTFGQGTKVEIK
notes: VH IFWH591, VL IFWL1048; converted mAb; also called IFWB3056
B9: IFWM3301 (antibody, V domains shown)
VH: EVQLVQSGAEVKKPGESLKISCKGSGYSFTSYWIGWVRQMPGKGLEWMGIIDPSDSDTRYSPSFQGQVTISADKSISTAYLQWSSLKASDTAMYYCARHPGLNWAPDFDYWGQGTLVTVSS
VL: DIQMTQSPSSLSASVGDRVTITCRASQSIDGSLNWYQQKPGKAPKLLIYFASSLQSGVPSRFSGSGSGTDFTLTISSLQPEDFATYYCQQSYDFPLTFGQGTKVEIK
notes: VH IFWH591, VL IFWL983; converted mAb; also called IFWB3036
B10: IFWM3314 (antibody, V domains shown)
VH: EVQLVQSGAEVKKPGESLKISCKGSGYSFTSYWIGWVRQMPGKGLEWMGIIDPSDSDTRYSPSFQGQVTISADKSISTAYLQWSSLKASDTAMYYCARHPGLNWAPDFDYWGQGTLVTVSS
VL: DIQMTQSPSSLSASVGDRVTITCRASQSIDRALNWYQQKPGKAPKLLIYFASSLQSGVPSRFSGSGSGTDFTLTISSLQPEDFATYYCQQSFDFPLTFGQGTKVEIK
notes: VH IFWH591, VL IFWL1014; converted mAb; also called IFWB3049
B11: IFWM3311 (antibody, V domains shown)
VH: EVQLVQSGAEVKKPGESLKISCKGSGYSFTSYWIGWVRQMPGKGLEWMGIIDPSDSDTRYSPSFQGQVTISADKSISTAYLQWSSLKASDTAMYYCARHPGLNWAPDFDYWGQGTLVTVSS
VL: DIQMTQSPSSLSASVGDRVTITCRASQSIDDFLNWYQQKPGKAPKLLIYFASSLQSGVPSRFSGSGSGTDFTLTISSLQPEDFATYYCQQSHTLPLTFGQGTKVEIK
notes: VH IFWH591, VL IFWL1009; converted mAb; also called IFWB3046
B12: IFWM3308 (antibody, V domains shown)
VH: EVQLVQSGAEVKKPGESLKISCKGSGYSFTSYWIGWVRQMPGKGLEWMGIIDPSDSDTRYSPSFQGQVTISADKSISTAYLQWSSLKASDTAMYYCARHPGLNWAPDFDYWGQGTLVTVSS
VL: DIQMTQSPSSLSASVGDRVTITCRASQSIAEFLNWYQQKPGKAPKLLIYFASSLQSGVPSRFSGSGSGTDFTLTISSLQPEDFATYYCQQSIDFPLTFGQGTKVEIK
notes: VH IFWH591, VL IFWL1004; converted mAb; also called IFWB3043
B13: IFWM3315 (antibody, V domains shown)
VH: EVQLVQSGAEVKKPGESLKISCKGSGYSFTSYWIGWVRQMPGKGLEWMGIIDPSDSDTRYSPSFQGQVTISADKSISTAYLQWSSLKASDTAMYYCARHPGLNWAPDFDYWGQGTLVTVSS
VL: DIQMTQSPSSLSASVGDRVTITCRASQSITSSLNWYQQKPGKAPKLLIYFASSLQSGVPSRFSGSGSGTDFTLTISSLQPEDFATYYCQQSFDLPLTFGQGTKVEIK
notes: VH IFWH591, VL IFWL1017; converted mAb; also called IFWB3050
B14: IFWM3302 (antibody, V domains shown)
VH: EVQLVQSGAEVKKPGESLKISCKGSGYSFTSYWIGWVRQMPGKGLEWMGIIDPSDSDTRYSPSFQGQVTISADKSISTAYLQWSSLKASDTAMYYCARHPGLNWAPDFDYWGQGTLVTVSS
VL: DIQMTQSPSSLSASVGDRVTITCRASQSINRFLNWYQQKPGKAPKLLIYAASSLQSGVPSRFSGSGSGTDFTLTISSLQPEDFATYYCQQAIDLPFTFGQGTKVEIK
notes: VH IFWH591, VL IFWL991; converted mAb; also called IFWB3037
B15: IFWM3306 (antibody, V domains shown)
VH: EVQLVQSGAEVKKPGESLKISCKGSGYSFTSYWIGWVRQMPGKGLEWMGIIDPSDSDTRYSPSFQGQVTISADKSISTAYLQWSSLKASDTAMYYCARHPGLNWAPDFDYWGQGTLVTVSS
VL: DIQMTQSPSSLSASVGDRVTITCRASQSITNFLNWYQQKPGKAPKLLIYFASSLQSGVPSRFSGSGSGTDFTLTISSLQPEDFATYYCQQSLDFPLTFGQGTKVEIK
notes: VH IFWH591, VL IFWL1000; converted mAb; also called IFWB3041
B16: IFWM3310 (antibody, V domains shown)
VH: EVQLVQSGAEVKKPGESLKISCKGSGYSFTSYWIGWVRQMPGKGLEWMGIIDPSDSDTRYSPSFQGQVTISADKSISTAYLQWSSLKASDTAMYYCARHPGLNWAPDFDYWGQGTLVTVSS
VL: DIQMTQSPSSLSASVGDRVTITCRASQSIGKSLNWYQQKPGKAPKLLIYFASSLQSGVPSRFSGSGSGTDFTLTISSLQPEDFATYYCQQSYDFPLTFGQGTKVEIK
notes: VH IFWH591, VL IFWL1007; converted mAb; also called IFWB3045
B17: IFWM3319 (antibody, V domains shown)
VH: EVQLVQSGAEVKKPGESLKISCKGSGYSFTSYWIGWVRQMPGKGLEWMGIIDPSDSDTRYSPSFQGQVTISADKSISTAYLQWSSLKASDTAMYYCARHPGLNWAPDFDYWGQGTLVTVSS
VL: DIQMTQSPSSLSASVGDRVTITCRASQSITGFLNWYQQKPGKAPKLLIYAASSLQSGVPSRFSGSGSGTDFTLTISSLQPEDFATYYCQQSHDFPLTFGQGTKVEIK
notes: VH IFWH591, VL IFWL1041; converted mAb; also called IFWB3054
B18: IFWM3322 (antibody, V domains shown)
VH: EVQLVQSGAEVKKPGESLKISCKGSGYSFTSYWIGWVRQMPGKGLEWMGIIDPSDSDTRYSPSFQGQVTISADKSISTAYLQWSSLKASDTAMYYCARHPGLNWAPDFDYWGQGTLVTVSS
VL: DIQMTQSPSSLSASVGDRVTITCRASQSIADFLNWYQQKPGKAPKLLIYFASSLQSGVPSRFSGSGSGTDFTLTISSLQPEDFATYYCQQSHSFPLTFGQGTKVEIK
notes: VH IFWH591, VL IFWL1051; converted mAb; also called IFWB3057
B19: IFWM3292 (antibody, V domains shown)
VH: EVQLVQSGAEVKKPGESLKISCKGSGYSFTSYWIGWVRQMPGKGLEWMGIIDPSDSDTAYSPSFQGQVTISADKSISTAYLQWSSLKASDTAMYYCARHPGLNWAPDFDYWGQGTLVTVSS
VL: DIQMTQSPSSLSASVGDRVTITCRASQSIDEFLNWYQQKPGKAPKLLIYFASSLQSGVPSRFSGSGSGTDFTLTISSLQPEDFATYYCQQAHSFPLTFGQGTKVEIK
notes: VH IFWH624, VL IFWL999; converted mAb; also called IFWB3027
B20: IFWM3325 (antibody, V domains shown)
VH: EVQLVQSGAEVKKPGESLKISCKGSGYSFTSYWIGWVRQMPGKGLEWMGIIDPSDSDTRYSPSFQGQVTISADKSISTAYLQWSSLKASDTAMYYCARHPGLNWAPDFDYWGQGTLVTVSS
VL: DIQMTQSPSSLSASVGDRVTITCRASQSIRNSLNWYQQKPGKAPKLLIKWASSLQSGVPSRFSGSGSGTDFTLTISSLQPEDFATYYCQQLYDWPLTFGQGTKVEIK
notes: VH IFWH591, VL IFWL1060; converted mAb; also called IFWB3060
B21: IFWM3320 (antibody, V domains shown)
VH: EVQLVQSGAEVKKPGESLKISCKGSGYSFTSYWIGWVRQMPGKGLEWMGIIDPSDSDTRYSPSFQGQVTISADKSISTAYLQWSSLKASDTAMYYCARHPGLNWAPDFDYWGQGTLVTVSS
VL: DIQMTQSPSSLSASVGDRVTITCRASQSINGVLNWYQQKPGKAPKLLIYFASSLQSGVPSRFSGSGSGTDFTLTISSLQPEDFATYYCQQSHDFPLTFGQGTKVEIK
notes: VH IFWH591, VL IFWL1047; converted mAb; also called IFWB3055

The target in the test is T1, IFN-αB2 (human, UniProt P32881 24-189).
T1 construct: also called IFN-α8; IFN alpha B2
Description: ProteOn, one antigen concentration.
In the case of B1, the Kd (commonly a measure of binding affinity in units of concentration) was determined as 0.06 nM. B2 came in with a Kd of 0.048 nM.

B3 registered a Kd of 0.017 nM. On to B4, for which binding was put at a Kd of 0.032 nM. B5 had a Kd of 0.041 nM. For B6, the affinity, expressed as Kd, was 0.04 nM. In the case of B7 it was 0.011 nM; in that of B8, 0.045 nM; in that of B9, 0.039 nM.

As to B10, the Kd was found to be 0.016 nM. B11: the Kd came out at 0.016 nM. This counts as picomolar. The molecule B12 registered a Kd of 0.049 nM. With B13, binding was put at a Kd of 0.092 nM. In the case of B14 it was 0.054 nM. In the case of B15 it was 0.03 nM; in that of B16, 0.063 nM. B17 registered a Kd of 0.076 nM. For the molecule B18, the Kd came out at 0.056 nM. In turn, B19 gave a Kd of 0.021 nM. This Kd lies about 2.7-fold lower than the previous one. The molecule B20 had an equilibrium dissociation constant (Kd) of 0.006 nM. Turning to B21, the Kd was 0.026 nM. Against the preceding molecule, the Kd is about 4.3-fold higher.

These data come from patent US20150368338A1 (Janssen / Centocor, published 2015).
